Assays:
[1] = Solubility 0.5% in base oil Yubase 4, visual inspection of appearance; type: physicochemical; conditions: 0.5 g compound stirred with 99.5 g Yubase 4 at 100°C for 4 hours, cooled to room temperature
Protocol: For the determination of the solubilities, 0.5 g of the compound under test was stirred with 99.5 g of Yubase 4 at 100°C for 4 hours and subsequently cooled to room temperature. The appearance of the solution was assessed by visual inspection.

[2] = Relative viscosity of 0.5% solutions in Yubase 4, Stabinger viscometer; type: physicochemical; conditions: 0.5% in Yubase 4, 25°C; ratio of viscosity of solution to viscosity of solvent
Protocol: Viscosities of different compounds (each 0.5% in Yubase 4 obtained from the solubility determinations. The relative viscosities (ratio of the viscosity of the solution to the viscosity of the solvent) of the solutions at 25°C were determined using a Stabinger viscometer (equivalent to ASTM D445).

Q: With “2,4-bis-(polyisobuteneureido)-toluene [Example 9]” as the substance, how does the “Solubility 0.5% in Yubase 4; visible appearance” value [1] read?
A: clear solution, not visibly more viscous than Yubase 4

Q: And the Relative viscosity [2]?
A: 1.0
